Assay results: PMC11279401, “Inhibitory Effect of Selected Guaianolide and Germacranolide Sesquiterpene Lactones on Nitric Oxide Production” (Molecules, 2024)
Entries after “also recorded” stand apart in the source; their conditions may differ.

Tested on: mouse peritoneal cells
Experiment: Cytotoxicity assay (WST-1), viability of mouse peritoneal cells
Format: cell-based
Settings: 10 µM compound, primary murine macrophages
Protocol: The tested compounds were dissolved in dimethyl sulfoxide (DMSO) to make stock solutions at a concentration of 50 mM, and then stored at −20 °C. Their biological activities were screened using a final concentration of 10 µM.
The animals were killed by cervical dislocation and injected intraperitoneally with 8 mL of sterile saline. Pooled peritoneal cells collected from the mice (n = 4–6 in individual experiments) were washed and re-suspended in a culture medium. The cell suspension was seeded onto 96-well round-bottom microplates (Costar, Corning, NY, USA). Final samples were supplemented to 100 µL volumes, containing 1–2 × 10^6 cells per well, depending on the assay. Cultures were maintained at 37 °C, 5% CO2 in a humidified incubator (Heraeus Holding GmbH, Hanau, Germany).
The viability of mouse peritoneal cells was determined using a colorimetric assay based on the cleavage of tetrazolium salt WST-1 by mitochondrial dehydrogenases in viable cells (Roche Diagnostics, Mannheim, Germany). The cells (1 × 10^6/mL) were cultured as described above. The viability of primary murine macrophages was tested in the presence of 10 µM of the respective test substance for […]. After the first 24 h of cultivation, WST-1 was added (10 µL), and the cells were kept in a Heraeus incubator at 37 °C for an additional 3 h. […] Optical density was evaluated at wavelengths of 450–690 nm.

C=C1C(=O)O[C@@H]2C[C@@H](C)[C@@H]3C=CC(=O)[C@@]3(C)[C@@H](O)[C@H]12 [Compound 15, helenalin]
Cytotoxicity / effect on cell viability (in words): cytotoxic; also recorded: remarkable cytotoxicity
